# PubChem BioAssay AID463111 (Johns Hopkins Ion Channel Center, 2010)
# The entries are a selection whose mix differs from that of the whole data set. Activity calls are given as the source filed them.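 How the source made its calls: active means B-score of the integrated calcium signal more than 4 SD below the library mean, with starting fluorescence not abnormally high; inactive means the rest.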
# Assay: enhancers of RGS4 function in calcium signaling – cell-based, HEK293 M3R inducible RGS4, calcium flux, primary screen (AID 463111);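 on B-score: negative B-score means reduced calcium response which marks RGS4 activation or potentiation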
# Conditions: HEK293 M3R/inducible RGS4, carbachol calcium flux Fluo4, at 10 µM; active compounds read low
# Outline: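 Reagent: ECmax carbachol challenge; Test system: M3R-expressing HEK293 line, RGS4 induced by doxycycline; Schedule: overnight RGS4 induction, 30 min dye load 37 °C, 20 min compound RT; Detection: calcium dye Fluo4 fluorescence; Read-out: Agonist-evoked peak-minus-minimum fluorescence over baseline, integrated ratio, B score.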
SMILES,outcome,B-score
CCC(C)N(CC(C)C)C(=S)SC(NC(C)=O)C(Cl)(Cl)Cl (stereo unspecified),inactive,–
CP(=O)(Nc1ccccn1)Oc1ccc(Cl)cc1 (stereo unspecified),inactive,–
O=C(OC1CN2CCC1CC2)c1cccc([N+](=O)[O-])c1 (stereo unspecified),inactive,–
CCOP(C)(=S)SCC(=O)NC(C)C(=O)O (stereo unspecified),inactive,–
CCOC(=O)c1ccc(NP(C)(=O)Oc2ccc(OC)cc2)cc1 (stereo unspecified),inactive,–
CCOC(=O)c1ccc(NC(=O)C(C)(CCl)SC)cc1 (stereo unspecified),inactive,–
O=[N+]([O-])c1cc([N+](=O)[O-])c(O)c([N+](=O)[O-])c1.c1ccc(Oc2ccncc2)cc1,inactive,–
Cc1cc(C)cc(OP(C)(=O)Nc2ccc(SC(F)(F)F)cc2)c1 (stereo unspecified),inactive,–
O=C(Nc1ccncc1[N+](=O)[O-])c1ccc([N+](=O)[O-])cc1[N+](=O)[O-],inactive,–
O=C(COc1ccccc1)OC1CN2CCC1CC2 (stereo unspecified),inactive,–
CP(=O)(NC(=O)Nc1ccccc1)Oc1ccccc1 (stereo unspecified),inactive,–
CCc1ccc(OP(C)(=O)N2CCN(c3ccc([N+](=O)[O-])cc3)CC2)cc1 (stereo unspecified),inactive,–
CP(=O)(Oc1ccccc1)OC(c1ccccc1)C(F)(F)F (stereo unspecified),inactive,–
COP1(=S)c2c(C)nn(CCC#N)c2N=C(c2ccc(F)cc2)N1C (stereo unspecified),inactive,–
Cc1cccc(C)c1OP(C)(=O)Nc1ccc(SC(F)(F)F)cc1 (stereo unspecified),inactive,–
CP(=O)(Nc1ccc(SC(F)(F)F)cc1)Oc1ccc(Cl)cc1 (stereo unspecified),inactive,–
COc1ccc(N/C(=N/P(=O)(N2CCOCC2)N2CCOCC2)N2CCOCC2)cc1,inactive,–
COc1cc(I)ccc1[As](=O)(O)O,inactive,–
COc1ccc2nc(NP(=O)(c3ccccc3)c3ccccc3)sc2c1,inactive,–
Cc1c2c(nc3ccccc13)SC(C(Cl)Cl)C2 (stereo unspecified),inactive,–
CCN(CC)CCCOC(=O)C(O)(c1ccccc1)c1ccccc1,–,active: -8.74

SMILES,outcome,B-score
Cc1cc(=O)[nH]c(N[N+](=O)[O-])n1,inactive,–
COc1ccc(OP(C)(=O)Nc2cccc(F)c2)cc1 (stereo unspecified),inactive,–
O=[N+]([O-])c1cc([N+](=O)[O-])c(-c2ccn[nH]2)s1,inactive,–
COc1ccccc1OP(C)(=O)Nc1cc(Cl)ccc1C (stereo unspecified),inactive,–
CC(C)NC(=O)NP(=O)(Oc1ccccc1)Oc1ccccc1,inactive,–
CCN(CC)C(=S)SC(NC=O)C(Cl)(Cl)Cl (stereo unspecified),inactive,–
Cc1cc(C)cc(OP(C)(N)=O)c1 (stereo unspecified),inactive,–
ClCCSc1nnc(-c2cccnc2)o1,inactive,–
CCOC(=O)c1ccc(NP(C)(=O)Oc2ccccc2)cc1 (stereo unspecified),inactive,–
CC(C)c1ccc(OP(=O)(Nc2ccccn2)Oc2ccccc2F)cc1 (stereo unspecified),inactive,–
Cc1ccc(NP(C)(=O)Oc2ccccc2)c(C)c1 (stereo unspecified),inactive,–
COc1ccccc1OP(C)(=O)Nc1ccc(C)cc1 (stereo unspecified),inactive,–
Cc1cccc(C)c1OP(C)(N)=O (stereo unspecified),inactive,–
Cc1ccc(OP(=O)(Nc2ccc([N+](=O)[O-])cn2)Oc2ccc(C)cc2)cc1,inactive,–
CC(C)(C)c1ccc(OP(C)(=O)Nc2ccc(SC(F)(F)F)cc2)cc1 (stereo unspecified),–,active: -9.33
O=[N+]([O-])c1ccc2c(c1)C=Nc1ccccc1O2,inactive,–
Cc1ccc2nc3c(c(C)c2c1)CC(C(Cl)Cl)S3 (stereo unspecified),inactive,–
O=[N+]([O-])c1cc([N+](=O)[O-])c(Nc2cccnc2)c([N+](=O)[O-])c1,inactive,–
O=[As](O)(c1ccc(O)cc1)c1ccccc1O,inactive,–
C[As](=O)(O)c1cccc(C(=O)O)c1,inactive,–
